Experimental findings from PubChem BioAssay AID493012 (Sanford-Burnham Center for Chemical Genomics, 2011) are described below.

The chains behind the UniProt entries cited, without tags or fusion partners. Where a name states a change or a piece, a line headed by the entry shows the natural chain unless it says otherwise.
UniProt Q9HC16: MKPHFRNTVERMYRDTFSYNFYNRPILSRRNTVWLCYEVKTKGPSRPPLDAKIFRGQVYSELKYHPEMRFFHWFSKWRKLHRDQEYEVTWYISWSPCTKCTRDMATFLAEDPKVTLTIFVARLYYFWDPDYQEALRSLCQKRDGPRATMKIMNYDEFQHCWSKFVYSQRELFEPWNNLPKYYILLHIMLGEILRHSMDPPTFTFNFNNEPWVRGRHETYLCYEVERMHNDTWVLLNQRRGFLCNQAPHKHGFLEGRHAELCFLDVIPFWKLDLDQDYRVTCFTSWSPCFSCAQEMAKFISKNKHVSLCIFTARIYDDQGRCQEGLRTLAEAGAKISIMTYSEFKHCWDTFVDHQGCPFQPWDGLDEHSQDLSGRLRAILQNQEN

Molecules are shown by their SMILES. The list shows a part of the results, in another mix than the full data. The source made the active and inactive calls.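 How the source made its calls: active means inhibition of at least 40% at 20 µM, with no more than 30% in the related APOBEC3A deaminase screen; inactive means the rest.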

One may read the inhibition as the drop in the measured response relative to a control, in per cent.

The assay has as its target DNA dC->dU-editing enzyme APOBEC-3G (Homo sapiens) (UniProt Q9HC16). The assay can be described thus: APOBEC3G DNA deaminase inhibitors, primary screen, biochemical, fluorescence, single-stranded DNA substrate, uHTS (AID 493012).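 Further: plate controls were DMSO wells with A3G for no effect and wells lacking A3G enzyme for full effect.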 Conditions: recombinant A3G, ssDNA deamination FAM/TAMRA fluorescence; at 20 µM; stronger effect = higher value.
For the compound `NS(=O)(=O)c1cccc(NC(=O)COC(=O)C(O)(c2ccccc2)c2ccccc2)c1`, the inhibition was inactive: -3.95%.
`Nc1cccc([As](=O)(O)c2ccccc2)c1`: the inhibition was inactive: -5.94%.
As for `O=P1(Nc2ncccn2)COc2ccccc2OC1`, the figure is inactive: -3.53%; as for `Clc1n[nH]nc1-c1nn[nH][15n]1`, inactive: -5.93%.
With `CC(C)(C)C(=O)NC(Sc1ncccn1)C(Cl)(Cl)Cl` (centres undefined), the inhibition was inactive: -0.647%.
In the case of `CCOP(=O)(Nc1ccc(C)cn1)OCC` it was inactive: -7.34%; in that of `CN(CCCl)Cc1cc(Cl)c(NC2=NCCN2)c(Cl)c1`, inactive: -3.63%.
In the case of `O=P1(Nc2ccccn2)COc2ccccc2OC1`, the inhibition is inactive: -6.63%.
As for `CCC1=CC2Cc3nc4ccc(Cl)cc4c(N)c3C(C1)C2` (centres undefined), the figure is inactive: -3.83%; as for `CCOP(=O)(NC(=NC(C)c1ccccc1)NC(C)c1ccccc1)OCC` (centres undefined), inactive: -0.987%.
For `O=[As](O)(c1ccccc1Br)c1ccccc1Br`, the inhibition was inactive: -3.6%.
As for `CC1(CBr)Cn2c(nc3ccccc3c2=O)S1` (centres undefined), the figure is inactive: -2.07%; as for `CC(C)/C=N\N=C(\N)N[N+](=O)[O-]`, inactive: 0.973%.
In the case of `CN(C(=O)Cc1ccc(Cl)c(Cl)c1)[C@@H]1CCCC[C@H]1N1CCCC1` it was inactive: -7.54%.
As for `COc1ccccc1CNC(=O)COC(=O)C(O)(c1ccccc1)c1ccccc1`, the figure is inactive: -5.24%; as for `O=C(COc1ccccc1)OC1CN2CCC1CC2` (centres undefined), inactive: -0.174%; as for `O=C(Nc1ccncc1[N+](=O)[O-])c1ccc([N+](=O)[O-])cc1[N+](=O)[O-]`, inactive: -11.2%.
On to `COP1(=S)c2c(C)nn(CCC#N)c2N=C(c2ccc(F)cc2)N1C` (centres undefined), for which the inhibition was inactive: -1.35%.
For `CCC(C)N(CC(C)C)C(=S)SC(NC(C)=O)C(Cl)(Cl)Cl` (centres undefined), the inhibition was inactive: -0.286%.
As to `CCOC(=O)c1ccc(NC(=O)C(C)(CCl)SC)cc1` (centres undefined), the inhibition was inactive: 0.805%.
As for `O=C(OC1CN2CCC1CC2)c1cccc([N+](=O)[O-])c1` (centres undefined), the figure is inactive: -3.44%; as for `CCCCOc1ccc(C(=O)NCC2(N3CCCCC3)CCCCC2)cc1OC`, inactive: -7.42%; as for `Cc1cc(SC(NC(=O)c2ccccc2)C(Cl)(Cl)Cl)nc(C(C)C)n1` (centres undefined), inactive: 6.96%.
On to `CCOC(=O)Nc1ccc([As](=O)(O)O)c(O)c1`, for which the inhibition is inactive: 0.235%.
As to `O=P(Nc1ccccn1)(c1cccc2ccccc12)c1cccc2ccccc12`, the inhibition is inactive: -5.89%.
In the case of `Cc1cc(SC(NC=O)C(Cl)(Cl)Cl)ncn1` (centres undefined) it was inactive: 12%.
Consider `CCOC(=O)Nc1cccc([As](=O)(O)O)c1`, for which the inhibition is inactive: -4.36%.
As to `Cc1ccc2nc3c(c(C)c2c1)CC(C(Cl)Cl)S3` (centres undefined), the inhibition is inactive: -1.17%.
In the case of `Cc1ccc(OP(=O)(Nc2ccc([N+](=O)[O-])cn2)Oc2ccc(C)cc2)cc1` it was inactive: -3.67%.
As for `C[As](=O)(O)c1cccc(C(=O)O)c1`, the figure is inactive: -0.025%; as for `O=[As](O)(c1ccc(O)cc1)c1ccccc1O`, inactive: -5.56%.
As for `COc1cc(C(=O)NCC2(N3CCOCC3)CCCCC2)ccc1OCC(C)C`, the figure is inactive: -2.58%; as for `CC(C)NC(=O)NP(=O)(Oc1ccccc1)Oc1ccccc1`, inactive: -2.44%.
Regarding `O=C(OC1CN2CCC1CC2)c1cccc2[nH]cnc12` (centres undefined), the inhibition was inactive: -4.79%.
In the case of `CCN(CC)C(=S)SC(NC=O)C(Cl)(Cl)Cl` (centres undefined) it was inactive: 1.21%; in that of `O=[N+]([O-])c1cc([N+](=O)[O-])c(-c2ccn[nH]2)s1`, inactive: -1.74%.
Turning to `CC(C)c1ccc(OP(=O)(Nc2ccccn2)Oc2ccccc2F)cc1` (centres undefined), the inhibition was inactive: -0.661%.
As for `ClCCSc1nnc(-c2cccnc2)o1`, the figure is inactive: -1.58%; as for `COc1ccc2nc(NP(=O)(c3ccccc3)c3ccccc3)sc2c1`, inactive: -2.44%; as for `COc1cc(I)ccc1[As](=O)(O)O`, inactive: -3.91%.
As for `O=C(OC1CN2CCC1CC2)C12CC3CC(CC(C3)C1)C2` (centres undefined), the figure is inactive: -0.079%.
On to `Cc1cc(=O)[nH]c(N[N+](=O)[O-])n1`, for which the inhibition is inactive: -10.5%.
Turning to `Cc1c2c(nc3ccccc13)SC(C(Cl)Cl)C2` (centres undefined), the inhibition was inactive: -8.31%.
As for `COc1ccc(N/C(=N/P(=O)(N2CCOCC2)N2CCOCC2)N2CCOCC2)cc1`, the figure is inactive: -9.51%.
